# Screening results (PubChem BioAssay)
# Shown are actives, neighbours in structure and some others; about 2.3% of the full set was active somewhere.
# ASAP1 GAP inh = blocks human ASAP1-stimulated Arf1 GTP hydrolysis; GDP FP detection; inhibition, % at 16.5 µM; 0.19% of 360,000 active; AID 624377; in the data active means inhibition above about 25%;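 further: 0% = vehicle with enzyme and substrate and 100% = no enzyme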
# Yeast UUG start = modulators of yeast start codon fidelity, primary screen, whole organism, S. cerevisiae, single point, plate reader | AID 602363, 2012 | actives 0.13% (n = 350,000) | activity score, % at 18.7 µM | S. cerevisiae UUG-firefly luciferase reporter, luminescence/redox ratio;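 active means replicate mean at a twofold rise or more, about +100% in these data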;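 further: firefly luciferase made from a UUG start codon reports start codon fidelity; reporter light over untreated wells divided by growth signal over untreated wells; some hits fall short of that in this replicate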
# MC4R antagonist = human MC4R antagonism in cAMP assay; P32245; MC4R-expressing cells, MTII-stimulated cAMP, LANCE TR-FRET; inhibition, % at 6.5 µM; 0.48% of 360,000 active;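 active means inhibition above its plate's cutoff, the mean of tested wells on that plate plus 3 SD, cut at about 29% in these data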;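 further: 0% = Melanotan II alone and 100% = Melanotan II plus saturating MCL0020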
#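 material = U2OS cells stably expressing human melanocortin 4 receptor (MC4R) | also added = Melanotan II challenge | dosing = single nominal compound dose of 6.5 µM | detection = TR-FRET with Eu-cAMP and labeled anti-cAMP, 671 nm | replication = singlicate | timing = compound 30 min, challenge 1 h, detection 1 h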
# MC4R barr agon = agonists of human melanocortin 4 receptor (MC4R) beta-arrestin | U2OS MC4R beta-arrestin complementation, luminescence; percent of melanotan II response, DMSO zero | activation, % at 8.9 µM | 0.98% of 360,000 active | AID 540308;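 active means activation above a per-plate cutoff, the mean activation of sample wells on that plate plus 3 SD, cut at about 8% in these data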
# ARFGAP1 inh = inhibitors of rat ARFGAP1 | Q62848 | Arfgap1-stimulated ARF1 GTP hydrolysis, GDP FP detection | inhibition, % at 16.5 µM | 0.26% of 360,000 active;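 active means inhibition above a per-plate limit, mean inhibition of low control wells plus 3 SD, cut at about 25% in these data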;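 further: 0% = DMSO wells with enzyme and 100% = wells lacking Arfgap1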
#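 System: truncated rat Arfgap1 GAP domain / Benchmarks: high control wells lacking Arfgap1, low control full reaction with DMSO / Times: compound-enzyme preincubation 20 min, reaction 120 min, detection 60 min, 25 °C / Repeats: one replicate per compound / Also added: human ARF1(Δ1-17)-GTP substrate / Measured by: Tracer-displacement fluorescence polarization with EDTA stop, 620/688 nm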
# CendR NRP1 mod = NRP-1/CendR interaction modulation; O14786; FAM-RPARPAR peptide binding to NRP-1, fluorescence polarization; AID 602438; inhibition, % at 25 µM; 0.85% of 360,000 active;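 active means inhibition or corrected inhibition above about 18%, plus a signal ratio from 0.5 to 1.5, limit read from the data, passing the limit was not always enough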
# The depositor's hits bear a star; . = no result.
1: Cc1ccc(C(=O)CC(Nc2ccc(F)cc2)c2ccccc2)cc1 (centres undefined)
2: Cc1noc(C)c1S(=O)(=O)Nc1ccc2c(c1)CC(=O)N([C@@H](C)CO)C[C@H](C)[C@H](CN(C)S(=O)(=O)c1ccc(F)cc1)O2
3: Cc1noc(C)c1S(=O)(=O)Nc1ccc2c(c1)CC(=O)N([C@H](C)CO)C[C@H](C)[C@H](CN(C)C)O2
4: O=C(CN1C(=O)c2ccccc2C1=O)Nc1cccc(S(=O)(=O)Nc2ccccc2Cl)c1
5: Cc1ccc(N2C(=O)C3CC(c4ccccc4)=C4C5C=CC(C6C(=O)N(c7ccc(C)cc7)C(=O)C56)C4C3C2=O)cc1 (centres undefined)
6: O=C(Nc1ccc(Oc2c(F)c(F)c(F)c(F)c2F)cc1)OC1CCN2Cc3ccccc3N=C12 (centres undefined)
7: Cc1cccc(NC(=O)Nc2ccc(Oc3c(F)c(F)c(F)c(F)c3F)cc2)c1
8: C[C@@H](c1ccccc1)N1C[C@@H](COCc2ccccc2)Oc2cc(N3CC[C@@H](N(C)C)C3)ccc2S1(=O)=O
entry no.	1	2	3	4	5	6	7	8
ASAP1 GAP inh	0	.	.	-3	-8	.	-5	12
ARFGAP1 inh	0	.	.	4	9	.	8	4
Yeast UUG start	16	4	0	.	.	-1	-15	.
MC4R antagonist	2	.	.	1	13	28	4	.
MC4R barr agon	8.9*	.	.	5	8.6*	9.3*	2	.
CendR NRP1 mod	-4	.	.	33*	-1	-2	-8	25*

9: Cc1cc(C)cc(NC(=O)COc2coc(CN3CCc4ccccc43)cc2=O)c1
10: CC(C)NC(=O)COc1coc(CN2CCN(c3ccccc3)CC2)cc1=O
11: Cc1ccc(NC(=O)COc2coc(CN3CCc4ccccc43)cc2=O)c(C)c1
12: N#CC1(C#N)C(C(N)=O)C1c1ccccc1 (centres undefined)
13: CN1C=CC2=C(C#N)C(N)C(C#N)(C#N)[C@H](c3ccccc3)[C@H]2C1 (some centres undefined)
14: CC(SC(=S)N1CCCC1)C(=O)O (centres undefined)
15: CC(C)(SC(=S)N1CCCCCC1)C(=O)O
16: Cc1cc(C(=O)Nc2sc3c(c2C#N)CCC(C)C3)cs1 (centres undefined)
entry no.	9	10	11	12	13	14	15	16
ASAP1 GAP inh	-1	-2	16	-3	4	4	-3	-3
ARFGAP1 inh	16	-4	17	0	3	-2	-7	-2
Yeast UUG start	-19	-10	-10	-13	-15	.	.	-12
MC4R antagonist	4	7	2	-1	-4	0	8	1
MC4R barr agon	9.2*	-4	-2	0	-3	-1	0	8.3*
CendR NRP1 mod	-12	23*	7	-54	23*	36*	-2	-11

# 2 entries from above, with bars between the fields:
nr | mol | ASAP1 GAP inh | ARFGAP1 inh | Yeast UUG start | MC4R antagonist | MC4R barr agon | CendR NRP1 mod
11 | Cc1ccc(NC(=O)COc2coc(CN3CCc4ccccc43)cc2=O)c(C)c1 | 16 | 17 | -10 | 2 | -2 | 7
6 | O=C(Nc1ccc(Oc2c(F)c(F)c(F)c(F)c2F)cc1)OC1CCN2Cc3ccccc3N=C12 (centres undefined) | . | . | -1 | 28 | 9.3* | -2

# Later entries:
17: CNc1ccccc1C(=O)OC
18: COC(=O)C(=N/Nc1ccccc1C(=O)OC)/C(C)=N/O
19: O=C(CCN1CCCCC1)N[C@H]1CC[C@H](CCNC(=O)c2cc(Cl)cc(Cl)c2)O[C@@H]1CO
20: Cc1nnc(NC(=O)c2oc3ccccc3c2C)s1
21: CCCCc1nnc(NC(=O)c2oc3ccccc3c2C)s1
22: COc1ccc(-n2nnnc2C(CCc2ccccc2)N2CCN(C/C=C/c3ccccc3)CC2)cc1 (centres undefined)
23: CCC(c1nnnn1-c1ccc(OC)cc1)N1CCN(C/C=C/c2ccccc2)CC1 (centres undefined)
24: O=C(c1ccc(-c2cccc(Cl)c2)o1)N1CCN(c2ccc([N+](=O)[O-])cc2)CC1
entry no.	17	18	19	20	21	22	23	24
ASAP1 GAP inh	3	5	.	10	-10	-12	-14	16
ARFGAP1 inh	8	3	.	6	4	-3	-7	6
Yeast UUG start	5	-31	4	-23	.	5	-4	.
MC4R antagonist	16	-1	.	-6	-1	.	.	2
MC4R barr agon	-2	8.8*	.	-2	9.1*	.	.	-1
CendR NRP1 mod	5	2	.	0	2	24*	4	29*

25: C[C@@H]1CN([C@@H](C)CO)C(=O)c2cc(C#CC3(O)CCCC3)cnc2O[C@@H]1CN(C)C(=O)CC1CC1
26: COCC(=O)N1[C@@H](CO)[C@@H]2c3ccccc3N(C(=O)Nc3ccccc3Cl)C[C@@H]21
27: Cc1ccc(N2C(=O)C(Cl)=C(Nc3c(C)n(C)n(-c4ccccc4)c3=O)C2=O)cc1
28: Cc1cccc(N2C(=O)C(Cl)=C(Nc3c(C)n(C)n(-c4ccccc4)c3=O)C2=O)c1C
29: CCOc1cc(C(=O)NCCN2CCOCC2)cc(OCC)c1OCC
30: COc1cc(C(=O)NCCC(=O)NCCN2CCOCC2)cc(OC)c1OC
31: CO[C@H]1CN(C)C(=O)c2cc(NC(C)=O)ccc2OC[C@H](C)N(C(=O)CC2CC2)C[C@@H]1C
32: C=C1CCN([C@@H](CC(C)C)C(=O)NCc2ccccc2)S(=O)(=O)c2ccccc21
entry no.	25	26	27	28	29	30	31	32
ASAP1 GAP inh	.	.	-8	3	4	.	.	-8
ARFGAP1 inh	.	.	1	10	-5	.	.	5
Yeast UUG start	0	-12	-4	-39	5	-11	-15	-21
MC4R antagonist	.	.	-5	14	1	3	.	5
MC4R barr agon	.	.	-1	0	2	2	.	0
CendR NRP1 mod	.	.	6	26*	26*	-8	.	27*

33: C=C1CCN([C@@H](CC(C)C)C(=O)O)S(=O)(=O)c2ccccc21
34: C=C1CCN(C(C(=O)OC)C(C)C)S(=O)(=O)c2ccc(F)cc21 (centres undefined)
35: C=C1CCN([C@@H](CC(C)C)C(=O)NCCCc2ccccc2)S(=O)(=O)c2ccccc21
36: C[C@@H]1CN([C@H](C)CO)C(=O)c2cc(C3=CCCCC3)cnc2O[C@@H]1CN(C)C(=O)c1cccc(F)c1
37: CO[C@H]1CN(C)C(=O)c2cc(NC(=O)c3ccc4c(c3)OCO4)ccc2OC[C@H](C)N(CCC(F)(F)F)C[C@H]1C
38: COc1ccc(CCNC(=O)C2CC2)cc1OC
39: COc1ccc(CCNC(=O)C2CCC(C(C)(C)C)CC2)cc1OC (centres undefined)
40: Cc1ccc2nc(-c3ccc(NC(=O)Cc4cccs4)cc3)[nH]c2c1
entry no.	33	34	35	36	37	38	39	40
ASAP1 GAP inh	-17	-15	4	.	.	8	0	6
ARFGAP1 inh	1	-5	0	.	.	-1	1	4
Yeast UUG start	-5	-13	-12	7	47	-7	0	-18
MC4R antagonist	6	-3	11	.	.	-6	4	15
MC4R barr agon	-2	0	-1	.	.	0	-3	9.4*
CendR NRP1 mod	25*	28*	30*	.	.	7	34*	6

# Record cards, from the list above.
# C[C@@H]1CN([C@H](C)CO)C(=O)c2cc(C3=CCCCC3)cnc2O[C@@H]1CN(C)C(=O)c1cccc(F)c1 in the list: ASAP1 GAP inh: .; ARFGAP1 inh: .; Yeast UUG start: 7; MC4R antagonist: .; MC4R barr agon: .; CendR NRP1 mod: .
# COc1ccc(CCNC(=O)C2CCC(C(C)(C)C)CC2)cc1OC (centres undefined) in the list: ASAP1 GAP inh: 0; ARFGAP1 inh: 1; Yeast UUG start: 0; MC4R antagonist: 4; MC4R barr agon: -3; CendR NRP1 mod: 34*

# Remaining list, next part.
41: Cc1ccc2nc(NC(=O)Cc3cccs3)sc2c1
42: CN1CCC(=NNC(=O)c2ccco2)CC1
43: COc1ccc(NC(=O)C2Cc3ccccc3CN2C(=O)c2ccccc2)cn1 (centres undefined)
44: CC1C=NC(S(=O)(=O)N2CC[C@@H]3[C@@H](CO)N(C)c4ccc(-c5ccccc5)cc4[C@@H]32)=N1 (some centres undefined)
45: COc1cc2sc3cc(NCC[C@@H]4CCCN4C)ccc3c(=O)c2cc1OC
entry no.	41	42	43	44	45
ASAP1 GAP inh	8	7	-7	.	20
ARFGAP1 inh	-6	4	-6	.	27*
Yeast UUG start	-20	-7	-13	23	0
MC4R antagonist	12	14	12	.	-12
MC4R barr agon	-1	1	-1	.	2
CendR NRP1 mod	-6	36*	25*	.	9
